How the values were obtained:
MCF7 cells = experiment: Growth inhibition of MCF7 breast cancer cells, DAPI nuclei count; format: cell-based; details: Her2− MCF7 cell line, FIG. 1A; IRX4204 10-1000 nM, trastuzumab 0.1-10 μg/ml
SkBr3 cells = experiment: Growth inhibition of SkBr3 breast cancer cells, DAPI nuclei count; format: cell-based; details: Her2+ SkBr3 cell line, FIG. 1B; IRX4204 10-1000 nM, trastuzumab 0.1-10 μg/ml

Substance: Herceptin: Trastuzumab (sold as HERCEPTIN®) binds to domain IV of the extracellular segment of Her2 [reference compound]
- growth inhibitory effect (in words) (MCF7 cells): neither agent had more than marginal effect
- growth inhibitory effect (in words) (SkBr3 cells): moderate growth inhibitory effect

From patent US20220211652A1, “USE OF AN RXR AGONIST IN TREATING HER2+ CANCERS” (Io Therapeutics, Inc, priority 2019, published 2022)
